Assay [1] in a line: NO-ferroheme transfer from albumin to RBC ghost membranes. To be noted: 75 μM albumin, 21 °C. The protocol:
(§1) FIGS. 10A-10B show other transfers of NO-ferroheme. […] 25 μM ferric heme, 50 μM glutathione, and 50 μM NO were added to 75 μM albumin under deaerated conditions. Addition of RBC ghost membranes results in typical light scattering due to turbidity from insoluble membranes. The mixture was centrifuged at 30,000 g for 2 hours, leaving behind NO-ferroheme in the albumin (hashed line), indicating little transfer to the membranes. FIG. 10B, Direct formation of NO-myoglobin from a mixture of RBC ghost membrane-solubilized NO-ferroheme (from 15 μM hemin, 50 μM NO, and 150 μM GSH) and 20 μM apo-myoglobin. Transfer experiments were conducted at 21 °C.
(§2) As labile heme (and thus potentially NO-ferroheme) can be found in membranes, the transfer of NO-ferroheme formed in RBC ghosts to albumin was qualitatively characterized. Ferric heme (25 μM), 50 μM glutathione, and 50 μM NO were added to RBC ghosts under anaerobic conditions at 37 °C (FIG. 3D). After subsequent incubation with albumin, the mixture was centrifuged at 30,000×g for 2 hours to remove membranes. […] Transfer of NO-ferroheme from membranes to albumin is unidirectional under these conditions (FIG. 10A).

In assay [2] the test system is albumin. Kind of assay: NO-ferroheme transfer from RBC membranes to serum albumin. To be noted: 25 μM ferric heme, 50 μM glutathione, 50 μM NO, RBC ghosts, 37 °C. The protocol: Heme (25 μM), 50 μM NO, and 50 μM GSH were reacted for 30 minutes in the presence of red cell membrane ghosts under anaerobic conditions. The sample was incubated for another 30 minutes at 37 °C after adding 75 μM albumin. After incubation, the sample was scanned for absorption in the Cary 50 UV-Vis spectrometer. The sample was subsequently spun at 30,000 g for two hours in a Sorvall® RC-5B centrifuge and the absorption spectrum of the supernatant was measured.
as §2

The subject of assay [3] is apo-myoglobin. The experiment in a line: NO-ferroheme transfer from RBC ghost membranes to apo-myoglobin. To be noted: 15 μM hemin, 50 μM NO, 150 μM GSH; 20 μM apo-myoglobin; 21 °C. The procedure: as §1
(§3) Albumin can mediate vascular NO-ferroheme signaling by transferring from albumin to heme binding protein. To assess and model such transfer, NO-ferroheme albumin was added to an equivalent of apo-myoglobin in an anaerobic solution at 37 °C (FIG. 3E). […] The isosbestic points at 397, 522, and 593 nm indicate direct transfer without formation of any other species or intermediates. Direct formation of NO-myoglobin from apo-myoglobin with NO-ferroheme in membranes is also readily observed (FIG. 10B). […] Thus, direct transfer of NO-ferroheme from solubilizing membranes or albumin to another apo-hemoprotein, like sGC, is feasible.

The subject of another assay is heme-free (apo-) sGC. To be noted: in vitro; cited from earlier work.
The subject of assay [4] is albumin. The settings on record: cited from earlier work.
A short description of assay [5]: NO-ferroheme formation kinetics in red blood cell membrane ghosts (UV-Vis). The settings on record: role: product; 25 μM heme, 100 μM NO, no thiol, anoxic, room temperature, 10% red cell ghosts. The protocol: Red cells were separated from the whole blood by sedimentation via centrifugation at 1000 g for 10 minutes. These packed red cells were then hemolyzed using 5 mM phosphate buffer, pH 8 (4.674 mM Na2HPO4+0.326 mM NaH2PO4) in the volume ratio of 1:40 for an hour. The mixture was spun at 35,000 g for 30 minutes at 20 °C and washed with the buffer repeatedly until the white ghosts were produced. The absence of hemoglobin was confirmed by taking the absorption of the ghosts in the range of 300-700 nm. Differential interface contrast microscopy images of the ghost membranes were taken via a Zeiss Axio Observer D1 Microscope. Images were collected and processed using ImageJ (1.44p).
Heme is hydrophobic and can be solubilized in organic solvents like methanol. […] The use of RBC membrane ghosts enabled characterization of the NO-ferroheme product by low temperature electron paramagnetic resonance (EPR) spectroscopy. Both reactions (in the presence and absence GSH) give rise to a rhombic EPR spectrum characteristic of a five-coordinate NO-ferroheme species with g-values at 2.081, 2.054, and 2.012 for gmax, gmid, and gmin, respectively, and a three-line hyperfine splitting centered on gmin (^NOA=47 MHz, FIG. 2D).^45,46
25 μM heme and 100 μM NO were reacted in the red cell ghost system under anoxic conditions at room temperature in the absence of any thiol species. […]

Assay [6] has as its system apo-myoglobin. Kind of assay: NO-ferroheme transfer from albumin to apo-myoglobin. The settings on record: GSH 50, 125, 250 μM. The procedure: NO-ferroheme in albumin was made using 25 μM home and 50 μM NO mixed for five minutes under anaerobic conditions, in pH 7.4 PBS buffer, in the presence of GSH (50, 125, 250 μM) before adding albumin. The NO-ferroheme was incubated with 25 mM albumin for 30 minutes before mixing with 30 μM apomyoglobin under anaerobic conditions. The kinetics were monitored for 330 minutes by UV-Vis absorption spectroscopy. No GSH dependence on the kinetics was observed.
as §3

Another assay relates to oxygenated hemoglobin. The settings on record: 20 °C; cited from earlier work.
A further assay concerns oxygenated myoglobin. The settings on record: 20 °C; cited from earlier work.

This is an account of results in patent US20260382635A1, “NITROSYL-HEME FORMULATIONS FOR THE TREATMENT OF CARDIOVASCULAR CONDITIONS, HEMOLYSIS, AND THE STABILIZATION OF CELL-FREE HEME MOLECULES” (published 2026).

As for `C=CC1=C(C)c2cc3[nH]c(cc4nc(cc5[nH]c(cc1n2)c(C)c5CCC(=O)O)C(CCC(=O)O)=C4C)c(C)c3C=C.[Fe+2]`, the “transfer of NO-ferroheme from albumin to membranes” value in [1] is “does not transfer to the membranes, but rather remains bound to albumin”. Besides, the “transfer of NO-ferroheme from membranes to albumin” value with albumin [2] is given as “demonstrating transfer from membranes to albumin”. For the same compound, the “direct formation of NO-myoglobin from NO-ferroheme in membranes” value in the assay with apo-myoglobin [3] was “readily observed”. Further, the “activation of apo-sGC” value in the assay with heme-free (apo-) sGC is given as “can directly activate heme-free (apo-) sGC in vitro”. In the assay on albumin [4], the “NO koff from NO-ferroheme in albumin binding pocket” value is 0.00014 s⁻¹. Besides, the “calculated half-life of NO-ferroheme formation” value in assay [5] is recorded as “about 4 minutes”. In addition, in the assay with apo-myoglobin [6], the “GSH dependence of transfer kinetics” value was “No GSH dependence on the kinetics was observed”.
As to `[N]=O`, the NO scavenging rate with oxygenated hemoglobin and in the assay with oxygenated myoglobin was 6-8×10^7 M^−1s^−1 in each case.
